From PubChem BioAssay AID1508615 (Milbrandt Lab, Department of Genetics, Washington …, 2020) come the findings set out here.

Sequences of proteins named here, by UniProt entry; tags and fusion partners are left off.
UniProt Q6SZW1, whole entry, looked up: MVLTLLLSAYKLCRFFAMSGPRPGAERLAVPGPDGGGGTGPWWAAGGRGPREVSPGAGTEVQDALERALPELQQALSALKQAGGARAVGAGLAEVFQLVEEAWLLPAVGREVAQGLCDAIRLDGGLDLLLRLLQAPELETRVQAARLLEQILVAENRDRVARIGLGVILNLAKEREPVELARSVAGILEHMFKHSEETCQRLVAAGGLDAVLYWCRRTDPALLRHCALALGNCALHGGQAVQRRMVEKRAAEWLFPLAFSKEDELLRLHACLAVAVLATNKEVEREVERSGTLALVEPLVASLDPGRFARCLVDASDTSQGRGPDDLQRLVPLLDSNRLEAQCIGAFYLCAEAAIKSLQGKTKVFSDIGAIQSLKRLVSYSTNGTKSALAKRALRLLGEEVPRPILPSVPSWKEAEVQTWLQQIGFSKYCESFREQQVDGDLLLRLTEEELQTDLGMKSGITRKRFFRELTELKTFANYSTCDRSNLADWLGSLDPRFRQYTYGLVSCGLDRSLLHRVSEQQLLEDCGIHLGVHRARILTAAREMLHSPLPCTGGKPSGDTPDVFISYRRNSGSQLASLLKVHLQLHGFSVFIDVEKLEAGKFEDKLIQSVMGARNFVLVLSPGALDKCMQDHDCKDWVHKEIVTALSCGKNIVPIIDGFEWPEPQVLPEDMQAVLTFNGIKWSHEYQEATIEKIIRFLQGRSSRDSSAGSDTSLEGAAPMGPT

Each structure is given as a SMILES string. The list shows a part of the results, in another mix than the full data. Calls of active or inactive are those of the source.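 Rule for the calls: active = ratio of uncleaved NAD to its breakdown product ADP-ribose above 4, meaning the enzyme was inhibited; inactive = the rest.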

The target in the assay is NAD(+) hydrolase SARM1 (Homo sapiens) (UniProt Q6SZW1). Briefly: SARM1 TIR NADase inhibitors by HPLC, primary screen, cell lysate, HPLC readout (AID 1508615). The note with it: HEK293T SAM-TIR lysate, NAD/ADPR ratio by HPLC; at 5 µM.
Regarding `Nc1cccc2ccc([As](=O)(O)O)cc12`, the outcome was inactive.
For `CC(=O)Nc1ccc([As](=O)(O)O)cc1`, the result was inactive.
Then `O=C(O)c1ccccc1[As](=O)(O)O`, with “inactive”; and `c1cc(-c2nn[nH]n2)ccc1-c1nn[nH]n1`, with “inactive”; and `CC(C)c1nc(Nc2ccccc2)n(P(=O)(N(C)C)N(C)C)n1`, with “inactive”.
Turning to `O=C(O)CNc1ccc([As](=O)(O)O)cc1`, the result was inactive.
The same measure for `Nc1ccc([As](=O)(O)O)c(O)c1`: “inactive”; for `O=C(Nc1cc([As](=O)(O)O)ccc1O)c1ccccc1`: “inactive”; for `Nc1ccc([As](=O)(O)c2ccc([N+](=O)[O-])cc2)cc1`: “inactive”.
The same measure for `O=[As](O)(c1ccccc1)c1ccc(O)cc1`: “inactive”.
For `O=[N+]([O-])c1ccc(OP2(=O)COCCO2)cc1` (configuration not stated), the result was inactive.
The same measure for `O=P1(N(CCCl)CCCl)OCCC2CCCCN21` (configuration not stated): “inactive”.
As for `O=C(O)COc1ccc([As](=O)(O)O)cc1[N+](=O)[O-]`, the outcome was inactive.
For `Nc1cccc2c([As](=O)(O)O)cccc12`, the outcome was inactive.
Then `CCCOP(=S)(Nc1nc(N)cc(=O)[nH]1)OCCC`, with “inactive”.
For `O=[As](O)(c1cccc(O)c1)c1cccc(O)c1`, the outcome was inactive.
On to `O=[As](O)(O)c1cccnc1`, for which the outcome was inactive.
For `CCOP(=O)(Nc1ccc(C)cn1)OCC`, the result was inactive.
In the case of `Nc1cccc([As](=O)(O)c2ccccc2)c1`, the result was inactive.
The same measure for `O=[As](O)(c1cccs1)c1cccs1`: “inactive”; for `O=[As]1(O)c2ccccc2-c2ccccc21`: “inactive”.
Then `O=[N+]([O-])c1ccc(Nc2ccc(Oc3ccc([N+](=O)[O-])cc3[N+](=O)[O-])cc2)c([N+](=O)[O-])c1`, with “inactive”; and `CCOC(=O)Nc1cccc([As](=O)(O)O)c1`, with “inactive”; and `CCOC(=O)Nc1ccc([As](=O)(O)O)c(O)c1`, with “inactive”.
As for `COc1cc(I)ccc1[As](=O)(O)O`, the outcome was inactive.
As for `O=[As](O)(c1ccc(Cl)cc1)C1CCCCC1O` (configuration not stated), the result was inactive.
`C[As](=O)(O)c1cccc(C(=O)O)c1`: the outcome was inactive.
